Here are results for two substances from US20250011774A1 (priority 2021, published 2025).

The series has as its system HSA-LR DM1-mouse model. The note with it: HSA-LR mice, single injection.

Regarding “5′-CAGCAGCAGCAGCAGCAGCAG-3′-PEG4COT-click-K-miniPEG2-Lys(FfFGRGRE)-miniPEG2-VKRKKKP-Ac [221-1106]”, the “recovery from disorientation after injection” value (C = 20 mpk, D = 40 mpk) is given as “took several hours to recover”. Take “5′-CAGCAGCAGCAGCAGCAGCAG-3′ [compound 221]”: the “time to recover from disorientation after injection” value is not above 15 min.
